From article PMC11154727, “Systematic Studies on the Anti-SARS-CoV-2 Mechanisms of Tea Polyphenol-Related Natural Products” (ACS Omega, 2024)

System: SARS-CoV-2 Delta virus (NTU92)
Assay type: cell-based

## O=c1c(O)cc([C@H]2Oc3cc(O)cc(O)c3C[C@H]2O)cc2c([C@H]3Oc4cc(O)cc(O)c4C[C@H]3O)cc(O)c(O)c12 [theaflavin]
  selectivity index: 9.0
